Consider one molecule from patent publication US11976068B2 (CHIMERIX, INC., priority 2015, dated 2024).

This series has as its system CYP isozymes (CYP 1A2, 2B6, 2C8, 2C9, 2C19, 2D6 and 3A4). The series is described as follows: CYP inhibition in pooled human liver microsomes, all isozymes. The note with it: pooled HLM. (In general: Liver microsomes are vesicles of endoplasmic reticulum, rich in cytochrome P450 enzymes.)

In the case of `Cc1ccccc1CN1C(=O)C2=C(CCN(Cc3ccccc3)C2)N2CCN=C12` [ONC201, 7-benzyl-4-(2-methylbenzyl)-2,4,6,7,8,9-hexahydroimidazo [1,2-a]pyrido[3,4-e]pyrimidin-5(1H)-one], the “time dependence of CYP inhibition” value is given as “not significantly time-dependent”.
